Among the data in patent US20060275211A1 (AGENSYS, published 2006) are koff and kon values, retold here.

The assay has as its target T1, Tag5-161P2F10B, purified recombinant extracellular domain (ECD) of 161P2F10B (amino acids 46-875) (human, UniProt O14638 46-875).
T1 construct: also called recombinant 161P2F10B; Tag5-161P2F10B-ECD
Put plainly: SPR, MAb captured on CM5 chip, recombinant 161P2F10B 1-100 nM injected. On the technique in general: Surface plasmon resonance follows binding to a sensor surface in real time, without labels.

B1: H16-7.200 (antibody, V domains shown)
VH: QVQLQESGPGLVKPSQTLSLTCTVSGGSITSGDYYWSWIRQHPGKGLEWFGFIYYSGSAYYNPSLKSRITISVDTSKNQFSLKLSSVTAADTAVYYCARERNYGGNSFDYWGQGTLVTVSS
VL: not shown
notes: Entries include the leader (VL: part of it) and a portion of the constant region; also called HA16-7.200
Turning to B1, the koff is 0.00059 s⁻¹ and the kon amounted to 65000 M⁻¹ s⁻¹.

The koff is the rate constant with which the complex falls apart. Broadly, the kon is the rate constant with which the complex forms.
